Like-named read-outs stand apart in the source and are kept apart here.
Target: human IBAT (Homo sapiens, UniProt Q12908)
Test: In vitro assay of IBAT-mediated uptake of [14C]-taurocholate (TC) in H14 cells
Assay type: cell-based
Conditions: read-out: Human TC IC50

Protein sequences, listed by entry. Tags and fused reporters are not part of them.
UniProt Q12908, whole entry: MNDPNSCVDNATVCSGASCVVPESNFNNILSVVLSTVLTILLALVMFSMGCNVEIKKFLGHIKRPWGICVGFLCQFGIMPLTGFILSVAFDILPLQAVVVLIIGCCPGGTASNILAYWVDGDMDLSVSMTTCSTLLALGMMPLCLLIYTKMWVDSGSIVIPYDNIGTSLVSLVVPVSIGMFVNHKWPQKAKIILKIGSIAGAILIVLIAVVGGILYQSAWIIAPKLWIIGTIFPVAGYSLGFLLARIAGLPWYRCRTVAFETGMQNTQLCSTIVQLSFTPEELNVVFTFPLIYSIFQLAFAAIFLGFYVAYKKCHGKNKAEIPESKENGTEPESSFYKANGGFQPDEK

| IC50 [µM] | SMILES | further results |
| --- | --- | --- |
| 0.079 | CCCCC1(CCCC)CS(=O)(=O)c2ccc(Br)cc2[C@@H](c2ccc3c(c2)OCO3)[C@H]1O (relative stereo) |  |
| 0.023 | CCCCC1(CCCC)CS(=O)(=O)c2ccc(N(C)C)cc2[C@@H](c2ccc(OCCCCCCBr)c(F)c2)[C@H]1O (relative stereo) |  |
|  | CCCCC1(CCCC)CS(=O)(=O)c2ccc(N(C)C)cc2[C@@H](c2ccc(OCCCCCC[N+](CC)(CC)CC)c(F)c2)[C@H]1O (relative stereo) | IC50 (tested form: trifluoroacetate): 0.0015 µM |
|  | CCCCC1(CCCC)CS(=O)(=O)c2ccc(N(C)C)cc2[C@@H](c2ccc(OCCOCCOCC[N+](c3ccccc3)(c3ccccc3)c3ccccc3)cc2)[C@H]1O (relative stereo) | IC50 (tested form: iodide): 0.003 µM |
|  | CCCCC1(CCCC)CS(=O)(=O)c2ccc(N(C)C)cc2[C@@H](c2cccc(OCCOCCOCC[N+](CC)(CC)CCN(CC)CC)c2)[C@H]1O (relative stereo) | IC50 (tested form: iodide): 0.003 µM |
| 0.29 | CCCC[C@@]1(CC)CS(=O)(=O)c2ccc(C(=O)OC)cc2[C@@H](c2ccc3c(c2)OCO3)[C@H]1O (relative stereo) |  |
| 0.007 | CCCCC1(CCCC)CS(=O)(=O)c2ccc(N(C)C)cc2[C@@H](c2ccc3c(c2)OCO3)[C@H]1O (relative stereo) [1105] |  |
| 0.39 | CCCC[C@]1(CC)CS(=O)(=O)c2ccc(Br)cc2[C@@H](c2ccc3c(c2)OCO3)[C@H]1O (relative stereo) [1216] |  |

— patent publication US6784201B2, “Benzothiepines having activity as inhibitors of ileal bile acid transport and taurocholate uptake” (G.D. Searle & Company, priority 1994, dated 2004)
